Molecular target: human P-gp (Homo sapiens, UniProt P08183)
Details: MDCK-MDR1, pH 7.4

Chains of the proteins cited; added tags and fusions are not shown.
UniProt P08183, whole entry: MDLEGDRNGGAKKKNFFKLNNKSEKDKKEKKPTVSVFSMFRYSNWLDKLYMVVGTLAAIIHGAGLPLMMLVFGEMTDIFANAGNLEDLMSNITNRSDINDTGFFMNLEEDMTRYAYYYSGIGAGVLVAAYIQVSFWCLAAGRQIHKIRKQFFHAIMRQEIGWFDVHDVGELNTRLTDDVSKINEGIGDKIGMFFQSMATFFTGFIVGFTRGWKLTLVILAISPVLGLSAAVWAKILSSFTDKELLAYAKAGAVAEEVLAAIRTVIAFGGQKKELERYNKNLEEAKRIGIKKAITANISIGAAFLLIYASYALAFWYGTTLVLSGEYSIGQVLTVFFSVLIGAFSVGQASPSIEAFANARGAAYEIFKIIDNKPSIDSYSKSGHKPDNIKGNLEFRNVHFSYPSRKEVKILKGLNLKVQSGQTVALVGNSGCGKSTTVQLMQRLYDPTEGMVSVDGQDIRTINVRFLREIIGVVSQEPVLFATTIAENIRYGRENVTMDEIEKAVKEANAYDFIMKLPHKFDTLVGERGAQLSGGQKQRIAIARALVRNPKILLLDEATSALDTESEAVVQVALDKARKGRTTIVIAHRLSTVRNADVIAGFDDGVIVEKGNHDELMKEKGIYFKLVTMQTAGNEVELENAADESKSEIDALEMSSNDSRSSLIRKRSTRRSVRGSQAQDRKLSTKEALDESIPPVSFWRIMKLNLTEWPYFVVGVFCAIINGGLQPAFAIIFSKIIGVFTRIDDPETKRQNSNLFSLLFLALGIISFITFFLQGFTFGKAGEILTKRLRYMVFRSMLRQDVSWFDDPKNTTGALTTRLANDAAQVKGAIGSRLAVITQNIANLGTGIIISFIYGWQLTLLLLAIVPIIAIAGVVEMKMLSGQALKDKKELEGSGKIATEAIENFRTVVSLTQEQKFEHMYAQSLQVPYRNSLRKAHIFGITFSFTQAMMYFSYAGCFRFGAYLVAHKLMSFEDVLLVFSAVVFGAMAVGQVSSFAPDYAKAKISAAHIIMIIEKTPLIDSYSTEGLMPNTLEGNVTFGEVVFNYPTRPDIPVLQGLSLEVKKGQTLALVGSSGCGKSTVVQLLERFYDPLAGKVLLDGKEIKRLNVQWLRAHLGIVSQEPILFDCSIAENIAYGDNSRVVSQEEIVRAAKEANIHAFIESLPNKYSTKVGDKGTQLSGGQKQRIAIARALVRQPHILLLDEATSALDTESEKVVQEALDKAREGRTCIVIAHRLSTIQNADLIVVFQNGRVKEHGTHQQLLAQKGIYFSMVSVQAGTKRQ

Papp,A→B: 12.4 ± 0.07 (cm/s) ×10^−6
SMILES: C=C[C@H]1C[N@@]2CC[C@H]1C[C@@H]2[C@@H](O)c1ccnc2ccc(OC)cc12 [Quinidine, quinidine]
